# Results from patent US20260232652A1, “COMBINATIONS OF DGK (DIACYLGLYCEROL KINASE) INHIBITORS” (priority 2023, published 2026).
# Chains of the proteins cited; added tags and fusions are not shown. Lines headed by an entry give the natural chain unless they say otherwise; changes in a name come on top.
# UniProt P23743: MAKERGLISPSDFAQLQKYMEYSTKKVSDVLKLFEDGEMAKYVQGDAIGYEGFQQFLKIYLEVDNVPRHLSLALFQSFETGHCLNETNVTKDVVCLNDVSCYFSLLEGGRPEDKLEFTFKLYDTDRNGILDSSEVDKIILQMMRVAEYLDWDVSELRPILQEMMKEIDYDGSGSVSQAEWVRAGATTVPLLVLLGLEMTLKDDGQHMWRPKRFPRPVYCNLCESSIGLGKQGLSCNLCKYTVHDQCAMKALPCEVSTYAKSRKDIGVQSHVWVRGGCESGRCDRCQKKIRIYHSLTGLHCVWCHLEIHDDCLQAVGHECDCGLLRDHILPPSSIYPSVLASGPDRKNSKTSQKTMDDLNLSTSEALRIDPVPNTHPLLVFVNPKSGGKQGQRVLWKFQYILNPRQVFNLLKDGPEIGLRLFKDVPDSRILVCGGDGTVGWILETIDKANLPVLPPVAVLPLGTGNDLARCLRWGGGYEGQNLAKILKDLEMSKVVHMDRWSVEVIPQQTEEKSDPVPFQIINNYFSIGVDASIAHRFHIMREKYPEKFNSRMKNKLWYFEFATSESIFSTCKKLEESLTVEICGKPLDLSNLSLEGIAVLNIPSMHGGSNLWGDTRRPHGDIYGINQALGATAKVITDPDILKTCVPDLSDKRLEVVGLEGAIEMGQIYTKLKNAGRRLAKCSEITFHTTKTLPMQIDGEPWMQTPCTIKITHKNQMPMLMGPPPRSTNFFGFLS
# Columns and labels:
# [1] = tested on: Human Colo-800 melanoma cells; experiment: Tumor cell killing assay (Colo-800 cells with MART1 T cells, xCELLigence cell index); assay type: cell-based; settings: 46 hours after start of co-culture
# Protocol: Human Colo-800 melanoma cells were seeded in a 96-well E-Plate (2×10^4 cells/well) for detection of cell adherence [=cell index (CI)], directly correlating with tumor cell viability and proliferation. […] Tumor cell index was quantified in five-minute intervals for a >90 hours period. Figure AA depicts the normalized cell index of the technical triplicates for each treatment group 46 hours after the start of co-culture. […] For details of the xCELLigence #104 assay, the reader is referred to J. Chou et al., Immunother. 2012 February; 35(2): 131-141, FIG. 6.
# human DGKalpha = biological target: T1, human DGKalpha (Homo sapiens, UniProt P23743); experiment: Human DGKalpha kinase activity inhibition assay (ADP-Glo); assay type: biochemical; settings: IC50 DGKzeta versus IC50 DGKalpha
# T1 construct: made in house; host or cells: baculovirus-infected Sf9 insect cells
# Protocol: Human DGKalpha inhibitory activity of compounds of the present invention was quantified employing the human DGKalpha kinase activity assay as described in the following paragraphs. In essence, the enzyme activity was measured by quantification of the adenosine-di-phosphate (ADP) generated as a co-product of the enzyme reaction via the “ADP-Glo™ Kinase Assay” kit from the company Promega. This detection system works as follows: In a first step the ATP not consumed in the kinase reaction is quantitatively converted to cAMP employing an adenylate cyclase (“ADP-Glo-reagent”), then the adenylate cyclase is stopped and the ADP generated in the kinase reaction converted to ATP, which subsequently generates in a luciferase-based reaction a glow-luminescence signal (“Kinase Detection Reagent”).
# C-terminally FLAG-tagged, recombinant full-length human DGKalpha (expressed in baculovirus infected insect cells, purified using anti-Flag pulldown and size exclusion chromatography as described below, DGKa_hu_1) was used as enzyme. As substrate for the kinase 1,2-dioleoyl-sn-glycerol, reconstituted in octyl-β-D-glucopyranoside micelles, was used. […] Then 35 volumes of 50 mM MOPS buffer (pH 7.4) were added to yield a solution of 0.28 mM 1,2 dioleoyl-sn-glycerol and 200 mM octyl-β-D-glucopyranoside, which was aliquoted, flash-frozen in liquid nitrogen, and stored at −20° C. until use. […]
smiles,measurement,setting,value
"Cc1ccc2oc(C3CCN(c4c(C(N)=O)c(=O)n(C)c5ccc(F)cc45)CC3)nc2c1 [DGKalpha inhibitor A, 6-fluoro-1-methyl-4-[4-(5-methyl-1,3-benzoxazol-2-yl)piperidin-1-yl]-2-oxo-1,2-dihydroquinoline-3-carboxamide]",tumor cell index (TCI),[1]; 1 nM (combination: 1 nM each),neither DGKalpha inhibitor A nor DGKzeta inhibitor A′ exercise a major effect
same,tumor cell index (TCI),[1]; 50 nM,only moderate
same,tumor cell index (TCI),"[1]; monotherapy 1 nM, 10 nM, 50 nM",dose-dependent reduction of the TCI
same,selectivity over DGKzeta,human DGKalpha,over 100 fold
